# Data published in PubChem BioAssay AID1347088 (National Center for Advancing Translational Sciences (NCATS), 2019).
# All entries are inconclusive by the source's own rule. Clear calls are listed elsewhere. Calls follow the shape of the full dose curve.
# Test: qHTS for Inhibitors of the Functional Ribonucleoprotein Complex (vRNP) of Lymphocytic Choriomeningitis Arenaviruses (LCMV): Viability assay - Alamar blue signal for LCMV Confirmatory Screen
# Details: LCMV vRNP confirmatory screen cells
structure (smiles),measurement,value
Cc1cc([N+](=O)[O-])cc([N+](=O)[O-])c1O,Potency,inconclusive: 49.8 µM
